Measured values as given in patent US20240092745A1, “DRUGS AND COMPOSITIONS FOR THE TREATMENT OF OCULAR DISORDERS” (Graybug Vision, Inc., priority 2017, published 2024).

Assay: Determination of drug solubility in aqueous and organic solvent;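 note: solid drug suspended at 50 mg/mL nominal in each solvent, vortexed and sonicated, then dissolved concentration in filtered supernatant quantified by HPLC against a calibration curve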
Format: physicochemical
Settings: for Solubility Water: drug added to 50 mg/mL

| Substance | Solubility DCM (Table 3B) | Solubility DMSO (Table 3B) | Solubility Water (Table 3B) | Solubility DCM (Table 3A) | Solubility DMSO (Table 3A) | Solubility Water (Table 3A) |
| --- | --- | --- | --- | --- | --- | --- |
| Dorzolamide-PLA (n = 5) | >50 mg/mL | >50 mg/mL | <1.0 mg/mL |  |  |  |
| dorzolamide-stearyl PLA (n=8) [Dorzolamide-Stearyl PLA (n = 8)] |  |  |  | >50 mg/mL | >50 mg/mL | <0.1 mg/mL |
